Protein sequences, listed by entry. Tags and fused reporters are not part of them. Lines headed by an entry give the natural chain unless they say otherwise; changes in a name come on top. Residues count along the entry.
UniProt P35346, 1-347: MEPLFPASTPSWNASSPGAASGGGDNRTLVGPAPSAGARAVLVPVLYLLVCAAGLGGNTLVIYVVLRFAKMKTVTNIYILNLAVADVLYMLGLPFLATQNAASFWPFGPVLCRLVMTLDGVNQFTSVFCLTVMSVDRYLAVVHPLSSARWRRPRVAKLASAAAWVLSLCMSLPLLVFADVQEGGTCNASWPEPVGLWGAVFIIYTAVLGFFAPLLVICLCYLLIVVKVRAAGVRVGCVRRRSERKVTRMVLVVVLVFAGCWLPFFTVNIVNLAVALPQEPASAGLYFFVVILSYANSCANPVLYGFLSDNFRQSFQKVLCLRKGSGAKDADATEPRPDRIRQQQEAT
UniProt P61278: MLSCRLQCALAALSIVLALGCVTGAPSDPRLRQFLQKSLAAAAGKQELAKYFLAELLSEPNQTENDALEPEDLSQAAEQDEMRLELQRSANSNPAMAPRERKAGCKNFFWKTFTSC

In US20110160081A1, “FUNCTIONAL COMPLEMENTATION ASSAY FOR DEFINED GPCR OLIGOMERS” (priority 2008, published 2011):

Target: somatostatin receptor 5 (SSTR5) (human) (UniProt P35346)
Assay: cell-based or functional assay

somatostatin (SST) (from UniProt P61278 103-116) (peptide)
potency of somatostatin with sulpiride relative to quinpirole, aequorin luminescence, SSTR5 coexpressed with D2R-Gqi5: 6 fold
